{"sequences": {"note": "By UniProt entry, the sequences of proteins in these tests, tags left out.", "UniProt P25024, whole entry": "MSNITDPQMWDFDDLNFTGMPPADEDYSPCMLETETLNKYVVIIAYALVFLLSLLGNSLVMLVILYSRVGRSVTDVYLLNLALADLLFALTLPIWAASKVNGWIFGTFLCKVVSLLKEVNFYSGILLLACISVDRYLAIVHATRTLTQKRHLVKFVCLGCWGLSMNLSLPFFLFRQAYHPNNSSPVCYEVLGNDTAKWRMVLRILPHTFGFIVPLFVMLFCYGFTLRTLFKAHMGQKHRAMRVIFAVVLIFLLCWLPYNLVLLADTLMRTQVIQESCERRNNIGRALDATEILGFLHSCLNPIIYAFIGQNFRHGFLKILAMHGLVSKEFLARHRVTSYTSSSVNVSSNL"}, "source": "ChEMBL document CHEMBL2176887", "about": "“Chemokine receptor antagonists” (J Med Chem, 2012)", "key": {"[1]": {"biological_target": "T1, C-X-C chemokine receptor type 1 (Homo sapiens, UniProt P25024)"}, "[2]": {"biological_target": "T1, C-X-C chemokine receptor type 1", "test": "Antagonist activity at CXCR1 assessed as inhibition of CXCL8 binding by cell based assay"}}}
{"smiles": "O=C(Nc1ccc([N+](=O)[O-])cc1O)Nc1ccccc1Br", "values": [{"measurement": "IC50", "setting": "[1]", "result": "> 3", "unit": "µM"}, {"measurement": "IC50", "setting": "[2]", "result": 0.022, "unit": "µM"}]}
